Test results reported in patent publication US20200138840A1, “PHARMACEUTICAL COMPOSITION AND TUMOR IMMUNOACTIVITY PROMOTER” (SENTAN Pharma inc., priority 2017, published 2020).

Test: Side effects in Example 3: body weight, meals, blood glucose, serological profiles, liver weight
Assay type: in vivo, nude mice
Conditions: day 21; 2DG 100 mg/kg/day intraperitoneally every day
Description: Nude mice subcutaneously transplanted with Huh-7 cells, prepared in the same manner as in Example 1, were divided in the following six groups.
(i) 2DG group: 100 mg/kg/day of the 100 mg/mL 2DG solution was administered into the jugular vein once a week.
(j) 2DG-PLGA group: 2DG-PLGA was administered into the jugular vein once a week.
(k) 2DG intraperitoneal injection group: 100 mg/kg/day of the 2DG solution was administered intraperitoneally every day.
(l) Sorafenib+PLGA group: 5 mg/kg/day of the sorafenib solution was administered orally every day, using a sonde, and PLGA was administered into the jugular vein once a week. […]
The dose of 2DG administered in the groups (i) and (k), which is 100 mg/kg/day, substantially corresponds to a single dose of 2DG per mouse (calculated based on an average body weight of 25 g) of about 2.5 mg. […]
In each of the groups, the tumor volume and the body weight of the mice were measured in the same manner as in Example 1, and the average amount of meals taken per day was calculated. The blood glucose level of the mice in the 2DG-PLGA group was measured on day 14 after the start of administration, in the same manner as in Example 1. Twenty-one days after the start of administration, the tumors were observed, and the serological profiles and the liver weight were measured, in the same manner as in Example 1.

## O=CC[C@@H](O)[C@H](O)[C@H](O)CO [2DG, 2-Deoxy-D-glucose]
  Neutral fat: 85.2 ± 37.5 mg/dL
